The chains behind the UniProt entries cited, without tags or fusion partners.
UniProt P08908, whole entry: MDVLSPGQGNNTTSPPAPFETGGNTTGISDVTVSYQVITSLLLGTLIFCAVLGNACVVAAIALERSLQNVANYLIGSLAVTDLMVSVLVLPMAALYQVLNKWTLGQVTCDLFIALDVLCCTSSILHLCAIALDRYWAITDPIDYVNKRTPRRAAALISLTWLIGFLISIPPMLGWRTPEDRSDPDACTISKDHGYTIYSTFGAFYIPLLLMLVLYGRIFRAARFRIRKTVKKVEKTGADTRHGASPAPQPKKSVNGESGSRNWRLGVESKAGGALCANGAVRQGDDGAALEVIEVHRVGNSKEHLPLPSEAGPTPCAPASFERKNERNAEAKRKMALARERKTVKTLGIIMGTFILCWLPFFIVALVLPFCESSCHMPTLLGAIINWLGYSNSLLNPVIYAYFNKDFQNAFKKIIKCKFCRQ
UniProt P35462, whole entry: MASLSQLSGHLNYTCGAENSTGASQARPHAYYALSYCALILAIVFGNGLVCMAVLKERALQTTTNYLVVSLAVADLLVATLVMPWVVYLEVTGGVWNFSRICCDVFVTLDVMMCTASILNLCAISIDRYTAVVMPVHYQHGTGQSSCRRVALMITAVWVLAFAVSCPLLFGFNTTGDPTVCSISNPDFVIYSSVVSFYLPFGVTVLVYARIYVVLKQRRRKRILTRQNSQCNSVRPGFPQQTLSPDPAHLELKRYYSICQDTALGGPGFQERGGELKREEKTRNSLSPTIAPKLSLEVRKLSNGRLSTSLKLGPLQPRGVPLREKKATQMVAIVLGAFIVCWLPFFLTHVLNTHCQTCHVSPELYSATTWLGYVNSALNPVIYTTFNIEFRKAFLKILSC

According to patent US20180193330A1, “ALKYLATED TETRAHYDROISOQUINOLINES FOR BINDING TO CENTRAL NERVOUS SYSTEM RECEPTORS” (Florida A&M University, priority 2017, published 2018):

How the values were obtained:
5-HT1A receptor = 5-HT1A receptor (Homo sapiens, UniProt P08908); experiment: Receptor binding affinity at 5-HT1A (NIMH-PDSP radioligand binding); settings: Table 5, Group 3 analogs
D3 receptor = D3 receptor (Homo sapiens, UniProt P35462); experiment: Receptor binding affinity at dopamine D3 (NIMH-PDSP radioligand binding); settings: read-out: Ki D3; Table 5, Group 3 analogs; Ki without SEM within 20% of mean

Row | SMILES | pKi ± SEM 5-HT1A (5-HT1A receptor) | Ki (5-HT1A receptor; read-out: Ki 5-HT1A, Ki without SEM within 20% of mean) [nM] | Ki (D3 receptor) [nM]
1 | O=C1c2ccc(F)cc2CC1CCN1CCc2ccccc2C1 (stereo not drawn) [Compound 3h, 2-(2-(3,4-dihydroisoquinolin-2(1H)-yl)ethyl)-5-fluoro-2,3-dihydro-1H-inden-1-one] | (7.73 ± 0.04) | 19 | –
2 | Cl.O=C1c2ccccc2CC1CCN1CCc2ccccc2C1 (stereo not drawn) [Compound 3i, 2-(2-(3,4-dihydroisoquinolin-2(1H)-yl)ethyl)-2,3-dihydro-1H-inden-1-one hydrochloride] | – | – | 866
